Protein sequences, listed by entry. Tags and fused reporters are not part of them.
UniProt P35372, whole entry: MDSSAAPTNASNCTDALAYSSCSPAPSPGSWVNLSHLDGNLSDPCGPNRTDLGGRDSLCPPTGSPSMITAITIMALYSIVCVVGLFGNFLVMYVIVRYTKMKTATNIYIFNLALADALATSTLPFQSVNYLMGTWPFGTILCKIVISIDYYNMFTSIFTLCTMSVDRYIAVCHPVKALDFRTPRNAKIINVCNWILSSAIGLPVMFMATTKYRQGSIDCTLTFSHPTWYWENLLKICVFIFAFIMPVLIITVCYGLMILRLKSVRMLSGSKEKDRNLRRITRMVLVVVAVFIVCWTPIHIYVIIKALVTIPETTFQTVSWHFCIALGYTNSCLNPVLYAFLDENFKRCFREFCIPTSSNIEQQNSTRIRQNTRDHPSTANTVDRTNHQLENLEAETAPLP

According to publication PMC9068900, “Pharmacology of Kappa Opioid Receptors: Novel Assays and Ligands” (Frontiers in Pharmacology, 2022):

Target: T1, human mu opioid receptor (Homo sapiens, UniProt P35372)
T1 construct: expressed in transfected cells
Assay: Calcium mobilization in CHO cells co-expressing the mu receptor and Gαqi5
Assay type: cell-based

Compound | EC50 (CHO cells, mu + Gαqi5) [nM] | Stimulation (only at the highest concentration tested) [% over the baseline]
C[C@@H](NC(=O)[C@@H](N)Cc1ccc(O)cc1)C(=O)N[C@@H](Cc1ccccc1)C(=O)NCC(=O)N[C@@H](Cc1ccc(O)cc1)C(=O)N1CCC[C@H]1C(=O)N[C@@H](CO)C(N)=O [Dermorphin] | 26.9 | 
CC[C@H](C)[C@H](NC(=O)[C@H](CCCNC(=N)N)NC(=O)[C@H](CCCNC(=N)N)NC(=O)[C@H](CC(C)C)NC(=O)[C@H](Cc1ccccc1)NC(=O)CNC(=O)CNC(=O)[C@@H](N)Cc1ccc(O)cc1)C(=O)N[C@@H](CCCNC(=N)N)C(=O)N1CCC[C@H]1C(=O)N[C@@H](CCCCN)C(=O)N[C@@H](CC(C)C)C(=O)N[C@@H](CCCCN)C(=O)N[C@@H](Cc1c[nH]c2ccccc12)C(=O)N[C@@H](CC(=O)O)C(=O)N[C@@H](CC(N)=O)C(=O)N[C@@H](CCC(N)=O)C(=O)O [Dyn A, dynorphin A] |  | 154
